Publication PMC10799042 (Scientific Reports, 2024)

What was measured:
[1] = system: Superoxide dismutase (SOD); assay: Superoxide dismutase (SOD) assay in brain homogenate; type: in vivo; conditions: brain THS of mice, scopolamine 1.5 mg/kg i.p.; donepezil and compounds 2 mg/kg p.o.; mean ± SD
[2] = system: Reduced glutathione (GSH); assay: Reduced glutathione (GSH) assay in brain homogenate; type: in vivo; conditions: brain THS of mice, scopolamine 1.5 mg/kg i.p.; donepezil and compounds 2 mg/kg p.o.; mean ± SD
malondialdehyde (MDA) = assay: Lipid peroxidation (LPO) assay, MDA in brain homogenate; type: in vivo; conditions: brain THS of mice, scopolamine 1.5 mg/kg i.p.; donepezil and compounds 2 mg/kg p.o.; mean ± SD
nitrite = assay: Nitrite assay (Greiss reagent) in brain homogenate; type: in vivo; conditions: brain THS of mice, scopolamine 1.5 mg/kg i.p.; donepezil and compounds 2 mg/kg p.o.; mean ± SD
Catalase = conditions: brain THS of mice, scopolamine 1.5 mg/kg i.p.; donepezil and compounds 2 mg/kg p.o.; mean ± SD
[3] = system: scopolamine-induced memory impairment and learning disability in mice; assay: Morris water maze, scopolamine-induced memory impairment; type: in vivo, Swiss albino male mice; conditions: scopolamine 1.5 mg/kg i.p., donepezil and compounds 2 mg/kg p.o. with scopolamine, day 1, mean ± SD
Description: Swiss albino male mice weighing 25–30 g were purchased from LLRUVAS in Hisar, Haryana, India. […] The housing, care, and handling of the animals were done per CPCSEA requirements. The animals were exposed to the laboratory setting for seven days before the experiment.
Five days of continuous animal evaluations were conducted using the MWM model. It consists of a circular water tank (120 cm × 60 cm; interior painted black) filled to a height of 55 cm with water that is (25 ± 2 °C)[7]. The tank was placed in a dim laboratory, and using wires anchored at the pool's edge at an angle to one another, it was divided into four equal pieces (P1–P4). A stage in the targeted area (P4) of the pool with an upper face (6 × 6 cm^2) immersed in the water (1.0 cm below the surface). The location of the stage stayed the same throughout the evaluation. The animals were subjected to water pools throughout the evaluation by turning their heads towards the wall from any of the four segments, namely P1-P4, and being given 90 s to recognise the stage placed in a pool. If the animal couldn't get to the stage in 90 s, they were gently guided onto the stage under supervision. On the sixth day, one of the parameters used to determine if cognitive impairments have recovered was the time it took the mice to travel from the initial portion to locate the hidden stage in the intended part (escape latency).
. […]

Row | Substance | SOD assay, SOD units/mg protein [1] | GSH assay, μmol of GSH/mg Protein [2] | LPO assay, MDA levels (malondialdehyde (MDA)) | Nitrite assay, nitrite conc. (nitrite) | Catalase assay, Catalase activity (Catalase) | Escape latency, 1st Day [3]
1 | N-(1-benzylpiperidin-4-yl)-2-(2-oxoindolin-3-yl)acetamide [Compound 23] | 3.07 ± 0.02 SOD units/mg protein | 0.10 ± 0.007 μmol of GSH/mg Protein | 9.77 ± 0.04 nM/mg of tissue | 15.2 ± 0.03 μM/mg protein | 5.13 ± 0.03 min⁻¹ | 
2 | 2-(1-benzylpiperidin-4-yl)-6,7-dimethoxy-4-(4-methoxyphenyl)quinoline [Compound 18] |  |  |  |  |  | 80.66 ± 0.81 s
3 | N-(1-(1-(3,4-dimethoxybenzyl)-2-oxopyrrolidin-3-yl)piperidin-4-yl)-4-fluorobenzenesulfonamide [Compound 8] |  |  |  |  |  | 80.66 ± 0.81 s
